The test has as its target PRMT1 (Homo sapiens, UniProt Q99873). Description: Stopped flow fluorescence assay of PRMT1 inhibition ([PRMT1] 0.2 µM, [SAM] 3.5 µM, [H4FL] 0.4 µM).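 Further: Stopped-flow traces of fluorescent H4FL peptide quenched on binding PRMT1 and restored on release, recorded 900 s, averaged over repeated drives and fit to a double-exponential model.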 The conditions noted are these: [SAH] 0.5 µM. The test is classed as biochemical.

The chains behind the UniProt entries cited, without tags or fusion partners. Residues count along the entry.
UniProt Q99873, 29-371: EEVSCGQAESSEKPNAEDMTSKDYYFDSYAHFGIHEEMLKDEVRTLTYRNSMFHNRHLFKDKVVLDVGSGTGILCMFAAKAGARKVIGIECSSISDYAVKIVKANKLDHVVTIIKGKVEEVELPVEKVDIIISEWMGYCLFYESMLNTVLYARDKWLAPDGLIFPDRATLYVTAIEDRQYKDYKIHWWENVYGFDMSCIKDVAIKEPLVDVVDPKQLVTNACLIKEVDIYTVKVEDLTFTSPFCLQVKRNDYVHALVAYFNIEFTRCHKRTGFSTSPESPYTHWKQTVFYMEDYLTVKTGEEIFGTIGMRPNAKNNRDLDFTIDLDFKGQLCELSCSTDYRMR

From article PMC5843908, “Detection of PRMT1 inhibitors with stopped flow fluorescence” (Signal Transduction and Targeted Therapy, 2018) come the findings set out here.

Regarding `Nc1ncnc2c1ncn2[C@@H]1O[C@H](CSCC[C@H](N)C(=O)O)[C@@H](O)[C@H]1O` [SAH, S-adenosyl homocysteine], the “a·k1 (slope of Phase I)” value was 0.0168 ± 4.24e-05 s⁻¹.
